Earlier results in US20070027634A1, “Molecular hepatotoxicology modeling” (priority 2002, published 2007).

Key:
[1] = rats; cited from earlier work
[2] = humans, poisoning; cited from earlier work

| Compound | liver finding (pathology) [1] | serum lactate dehydrogenase level [2] |
| --- | --- | --- |
| S=C=Nc1cccc2ccccc12 [ANIT, α-naphthylisothiocyanate] | neutrophil-dependent necrosis of bile duct epithelial cells (BDECs) and hepatic parenchymal cells |  |
| ClC(Cl)Cl [chloroform, Chloroform] |  | decreased levels |
